From PubChem BioAssay AID651572 (The Scripps Research Institute Molecular Screening Center, 2012)
The list shows a part of the results, in another mix than the full data. Activity calls are given as the source filed them.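 The calls were made as follows: active = inhibition above a per-plate limit, mean inhibition of low control wells plus 3 SD (cut at about 25% in these data); inactive = the rest.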

Sequences of proteins named here, by UniProt entry; tags and fusion partners are left off. Residues count along the entry.
UniProt Q62848, 1-136 limits assumed: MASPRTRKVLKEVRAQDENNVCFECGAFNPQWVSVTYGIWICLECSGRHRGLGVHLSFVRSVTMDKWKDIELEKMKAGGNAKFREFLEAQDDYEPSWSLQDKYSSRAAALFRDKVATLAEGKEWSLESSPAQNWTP

target: ADP-ribosylation factor GTPase-activating protein 1 (Rattus norvegicus) (UniProt Q62848); assay: inhibitors of rat ARFGAP1 GAP activity, primary screen, biochemical, fluorescence polarization, GDP tracer (AID 651572); conditions: Arfgap1-stimulated ARF1 GTP hydrolysis, GDP FP detection; at 16.5 µM; hits give high values;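 also: 0% = DMSO wells with enzyme and 100% = wells lacking Arfgap1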
Procedure, shortened: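 Material: rat Arfgap1 catalytic domain, aa 1-136; also added: human ARF1(Δ1-17)-GTP substrate; compound dosing: one concentration, 16.5 µM, DMSO 1.26%; incubation: GTP hydrolysis reaction 2 h at 25 °C; measured by: Tracer-displacement fluorescence polarization with EDTA stop, 620/688 nm; evaluation: % inhibition from polarization; repeats: one replicate per compound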

Row | SMILES | inhibition
1 | CCC(=O)N(c1ccccc1)C1(COC)CCN(CCn2nnn(CC)c2=O)CC1 | inactive: 7.08%
2 | CCC(=O)N(c1ccccc1)C1(COC)CCN(CCc2cccs2)CC1 | inactive: 3.44%
